The test concerns Mus musculus. The test is described as follows: Protective index, ratio of TD50 for ip dosed Mus musculus (mouse) to ED50 for protection against pentylenetetrazol-induced seizures in ip dosed mouse. In kind it is functional.

The results in this text go back to ChEMBL document CHEMBL3044593, “Design, synthesis and anticonvulsant evaluation of novel 8-substituted-4(3H)-quinazolines” (Med Chem Res, 2012).

Molecules are shown by their SMILES.

As for `CCCC(CCC)C(=O)[O-].[Na+]` [VALPROATE SODIUM], the “Ratio TD50/ED50” value was found to be 2.
